Amino acid sequences for entries named in this document (tags omitted). Residues count along the entry.
UniProt P51449, 262-507 limits assumed: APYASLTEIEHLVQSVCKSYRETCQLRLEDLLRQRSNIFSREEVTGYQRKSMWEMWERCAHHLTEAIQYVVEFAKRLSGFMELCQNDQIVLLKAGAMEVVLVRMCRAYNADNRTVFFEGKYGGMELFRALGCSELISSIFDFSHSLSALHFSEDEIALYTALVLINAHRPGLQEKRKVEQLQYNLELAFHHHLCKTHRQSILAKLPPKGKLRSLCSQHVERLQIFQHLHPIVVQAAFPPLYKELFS

According to patent US10035790B2, “RORγ modulators” (BRISTOL-MYERS SQUIBB COMPANY, priority 2012, dated 2018):

Target: ligand binding domain of human RORγ (A262-S507) (Homo sapiens, UniProt P51449)
Experiment: General RORγ SPA binding assay (competition with [3H]25-hydroxycholesterol)
Conditions: inhibition of [3H]25-hydroxycholesterol binding

Compound `Nc1ncc(C(F)(F)COc2cccc(C(F)(F)F)n2)c(C2CCN(C(=O)Nc3c(F)cccc3F)CC2)n1` has an IC50 of 1.9 nM.
